target: GSPT1 (Homo sapiens, UniProt P15170+Q96SW2); assay: Western blot assay of substrate protein degradation in hPBMCs; settings: 24 hours treatment, compounds at 50 nM and 500 nM (concentration behind the class not stated)

Sequences of proteins named here, by UniProt entry; tags and fusion partners are left off.
UniProt P15170, whole entry: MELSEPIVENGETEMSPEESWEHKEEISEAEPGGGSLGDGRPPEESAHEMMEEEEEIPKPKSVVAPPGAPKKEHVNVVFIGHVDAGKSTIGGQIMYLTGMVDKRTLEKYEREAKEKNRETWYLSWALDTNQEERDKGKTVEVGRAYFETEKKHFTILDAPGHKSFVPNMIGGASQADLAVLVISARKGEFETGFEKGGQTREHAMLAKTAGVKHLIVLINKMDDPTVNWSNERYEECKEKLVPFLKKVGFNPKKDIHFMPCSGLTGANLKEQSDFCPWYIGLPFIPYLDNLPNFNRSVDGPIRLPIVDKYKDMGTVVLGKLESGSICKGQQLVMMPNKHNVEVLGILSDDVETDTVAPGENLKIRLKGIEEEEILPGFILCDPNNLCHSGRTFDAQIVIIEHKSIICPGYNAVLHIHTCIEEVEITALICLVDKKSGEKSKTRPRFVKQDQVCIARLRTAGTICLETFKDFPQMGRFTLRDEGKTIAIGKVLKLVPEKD
UniProt Q96SW2, whole entry: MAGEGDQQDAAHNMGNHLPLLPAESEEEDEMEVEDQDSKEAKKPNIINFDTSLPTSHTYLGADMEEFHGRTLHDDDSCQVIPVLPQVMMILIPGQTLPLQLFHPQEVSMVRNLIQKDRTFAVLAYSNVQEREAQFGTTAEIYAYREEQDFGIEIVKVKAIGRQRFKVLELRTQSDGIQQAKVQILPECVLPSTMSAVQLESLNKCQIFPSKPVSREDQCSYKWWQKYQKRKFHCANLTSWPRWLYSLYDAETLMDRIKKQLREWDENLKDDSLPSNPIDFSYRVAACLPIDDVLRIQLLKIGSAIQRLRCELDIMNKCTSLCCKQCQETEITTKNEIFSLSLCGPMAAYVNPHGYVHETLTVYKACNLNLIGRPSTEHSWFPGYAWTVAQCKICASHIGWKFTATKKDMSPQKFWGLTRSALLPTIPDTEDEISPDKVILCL
UniProt Q13422, whole entry: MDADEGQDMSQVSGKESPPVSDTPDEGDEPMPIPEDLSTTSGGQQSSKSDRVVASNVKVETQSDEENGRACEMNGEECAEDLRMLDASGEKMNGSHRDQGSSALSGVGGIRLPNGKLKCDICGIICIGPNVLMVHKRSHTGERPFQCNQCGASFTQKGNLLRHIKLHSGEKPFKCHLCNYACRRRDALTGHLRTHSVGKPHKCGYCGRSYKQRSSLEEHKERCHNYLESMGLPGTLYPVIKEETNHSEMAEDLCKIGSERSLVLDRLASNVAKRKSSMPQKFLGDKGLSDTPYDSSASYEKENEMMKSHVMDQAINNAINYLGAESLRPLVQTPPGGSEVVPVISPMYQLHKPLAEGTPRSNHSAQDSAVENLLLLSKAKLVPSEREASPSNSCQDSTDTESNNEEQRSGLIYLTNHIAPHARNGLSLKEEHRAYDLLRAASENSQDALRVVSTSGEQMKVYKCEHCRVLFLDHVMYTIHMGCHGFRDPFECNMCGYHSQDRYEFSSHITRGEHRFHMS
UniProt P30291, whole entry: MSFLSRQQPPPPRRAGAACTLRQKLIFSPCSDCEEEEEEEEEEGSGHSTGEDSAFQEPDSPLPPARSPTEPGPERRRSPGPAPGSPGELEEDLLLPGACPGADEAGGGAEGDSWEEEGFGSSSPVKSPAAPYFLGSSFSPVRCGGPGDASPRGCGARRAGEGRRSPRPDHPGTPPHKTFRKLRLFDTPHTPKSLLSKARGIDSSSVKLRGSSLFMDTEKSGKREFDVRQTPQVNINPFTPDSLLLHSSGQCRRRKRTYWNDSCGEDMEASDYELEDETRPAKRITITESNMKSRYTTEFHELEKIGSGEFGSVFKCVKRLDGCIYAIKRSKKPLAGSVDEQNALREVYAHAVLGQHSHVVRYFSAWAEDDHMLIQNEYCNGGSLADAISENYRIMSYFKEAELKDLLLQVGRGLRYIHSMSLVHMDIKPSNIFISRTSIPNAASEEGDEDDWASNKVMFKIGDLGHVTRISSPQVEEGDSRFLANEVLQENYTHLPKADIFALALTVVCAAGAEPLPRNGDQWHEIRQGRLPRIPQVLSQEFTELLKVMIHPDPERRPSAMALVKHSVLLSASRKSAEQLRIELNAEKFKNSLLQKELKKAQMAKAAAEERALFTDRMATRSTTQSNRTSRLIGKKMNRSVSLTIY
UniProt Q9UKT9, whole entry: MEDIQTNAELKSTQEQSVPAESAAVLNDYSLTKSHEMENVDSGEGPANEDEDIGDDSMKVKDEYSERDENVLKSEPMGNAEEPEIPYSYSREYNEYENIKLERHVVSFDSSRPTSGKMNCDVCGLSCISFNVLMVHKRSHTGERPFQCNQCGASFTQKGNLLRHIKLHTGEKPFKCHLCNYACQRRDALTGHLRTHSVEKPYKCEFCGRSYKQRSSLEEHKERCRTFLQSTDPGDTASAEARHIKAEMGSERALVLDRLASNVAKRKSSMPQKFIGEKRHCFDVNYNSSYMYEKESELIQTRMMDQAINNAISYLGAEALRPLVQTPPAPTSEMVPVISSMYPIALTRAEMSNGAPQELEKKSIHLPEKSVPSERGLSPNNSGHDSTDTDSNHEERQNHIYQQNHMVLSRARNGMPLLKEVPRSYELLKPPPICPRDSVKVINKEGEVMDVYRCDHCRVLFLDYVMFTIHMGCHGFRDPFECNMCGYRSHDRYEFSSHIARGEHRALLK
UniProt P48729, whole entry: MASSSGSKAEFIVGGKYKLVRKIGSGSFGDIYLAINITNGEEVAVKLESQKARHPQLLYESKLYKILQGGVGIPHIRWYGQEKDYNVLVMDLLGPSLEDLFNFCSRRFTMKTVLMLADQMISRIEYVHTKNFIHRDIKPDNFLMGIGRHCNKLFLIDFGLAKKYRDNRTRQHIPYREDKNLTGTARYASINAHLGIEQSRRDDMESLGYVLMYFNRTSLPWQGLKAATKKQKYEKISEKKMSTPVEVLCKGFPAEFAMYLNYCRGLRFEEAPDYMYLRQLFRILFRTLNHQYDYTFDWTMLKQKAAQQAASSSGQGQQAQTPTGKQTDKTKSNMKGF
UniProt Q9UKS7, whole entry: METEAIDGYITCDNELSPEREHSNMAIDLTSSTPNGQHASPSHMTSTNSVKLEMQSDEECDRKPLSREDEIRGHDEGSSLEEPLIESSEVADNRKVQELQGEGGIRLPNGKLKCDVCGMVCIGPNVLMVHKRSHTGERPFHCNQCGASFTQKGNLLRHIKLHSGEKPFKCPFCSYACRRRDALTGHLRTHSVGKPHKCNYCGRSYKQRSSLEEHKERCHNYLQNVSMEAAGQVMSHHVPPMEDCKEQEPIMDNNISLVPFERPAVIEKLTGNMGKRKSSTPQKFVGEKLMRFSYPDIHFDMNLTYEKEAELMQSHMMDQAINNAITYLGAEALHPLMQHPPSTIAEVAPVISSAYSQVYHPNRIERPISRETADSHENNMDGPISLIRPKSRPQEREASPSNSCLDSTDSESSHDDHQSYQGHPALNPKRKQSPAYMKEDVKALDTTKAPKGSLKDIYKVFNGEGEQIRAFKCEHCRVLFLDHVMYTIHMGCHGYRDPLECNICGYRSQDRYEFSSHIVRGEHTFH
UniProt Q16531, whole entry partner: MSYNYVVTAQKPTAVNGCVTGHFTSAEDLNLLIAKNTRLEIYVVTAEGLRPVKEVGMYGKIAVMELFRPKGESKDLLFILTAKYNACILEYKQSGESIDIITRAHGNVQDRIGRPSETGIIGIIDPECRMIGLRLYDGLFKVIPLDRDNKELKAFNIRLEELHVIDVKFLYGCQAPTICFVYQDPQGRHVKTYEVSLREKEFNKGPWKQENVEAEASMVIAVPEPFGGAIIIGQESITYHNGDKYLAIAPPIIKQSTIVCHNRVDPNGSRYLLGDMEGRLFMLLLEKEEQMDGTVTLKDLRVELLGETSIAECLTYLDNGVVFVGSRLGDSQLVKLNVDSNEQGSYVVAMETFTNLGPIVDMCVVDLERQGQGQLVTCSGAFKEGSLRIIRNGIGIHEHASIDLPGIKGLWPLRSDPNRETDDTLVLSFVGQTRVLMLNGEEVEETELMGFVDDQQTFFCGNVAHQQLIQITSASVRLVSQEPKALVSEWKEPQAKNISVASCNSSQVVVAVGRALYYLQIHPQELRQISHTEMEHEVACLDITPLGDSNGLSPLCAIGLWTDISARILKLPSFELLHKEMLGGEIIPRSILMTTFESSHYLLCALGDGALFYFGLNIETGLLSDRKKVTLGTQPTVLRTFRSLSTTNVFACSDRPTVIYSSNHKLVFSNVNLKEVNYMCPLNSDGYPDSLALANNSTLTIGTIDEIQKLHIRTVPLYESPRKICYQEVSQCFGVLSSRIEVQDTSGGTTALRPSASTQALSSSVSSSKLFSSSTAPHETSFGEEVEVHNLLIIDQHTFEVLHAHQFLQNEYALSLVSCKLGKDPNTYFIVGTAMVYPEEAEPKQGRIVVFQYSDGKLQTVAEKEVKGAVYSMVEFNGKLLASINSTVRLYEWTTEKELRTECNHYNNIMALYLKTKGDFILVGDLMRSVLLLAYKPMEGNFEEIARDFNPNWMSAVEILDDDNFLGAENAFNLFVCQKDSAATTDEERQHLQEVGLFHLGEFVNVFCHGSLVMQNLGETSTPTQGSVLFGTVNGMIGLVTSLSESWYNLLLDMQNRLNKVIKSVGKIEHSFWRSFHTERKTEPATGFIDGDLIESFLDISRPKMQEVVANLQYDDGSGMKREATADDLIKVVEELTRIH

Row | Compound | substrate protein remaining % (GSPT1)
1 | O=C1CCC(N2Cc3c(ccc(CN4CCC(N5CCN(c6noc7cc(F)ccc67)CC5)C(F)(F)C4)c3F)C2=O)C(=O)N1 (stereo not shown) | A (0% ≤ substrate protein remaining % ≤ 80%)
2 | O=C1CCC(N2Cc3ccc(CN4CCC(N5CCN(c6noc7cc(F)ccc67)CC5)C(F)(F)C4)cc3C2=S)C(=O)N1 (stereo not shown) | A (0% ≤ substrate protein remaining % ≤ 80%)
3 | O=C1CCN(N2C(=O)c3ccc(CN4CCC(N5CCN(C(c6ccccc6)c6ccccn6)CC5)C(F)(F)C4)cc3C2=O)C(=O)N1 (stereo not shown) | B (80%< substrate protein remaining %≤ 100%)

target: IKZF1 (Homo sapiens, UniProt Q13422+Q96SW2); assay: as above; settings: 24 hours treatment, compounds at 50 nM and 500 nM (concentration behind the class not stated)

Row | Compound | substrate protein remaining % (IKZF 1)
4 | O=C1CCC(N2Cc3c(ccc(CN4CCC(N5CCN(c6noc7cc(F)ccc67)CC5)C(F)(F)C4)c3F)C2=O)C(=O)N1 (stereo not shown) | A (0% ≤ substrate protein remaining % ≤ 80%)
5 | O=C1CCC(N2Cc3ccc(CN4CCC(N5CCN(c6noc7cc(F)ccc67)CC5)C(F)(F)C4)cc3C2=S)C(=O)N1 (stereo not shown) | B (80%< substrate protein remaining %≤ 100%)
6 | O=C1CCN(N2C(=O)c3ccc(CN4CCC(N5CCN(C(c6ccccc6)c6ccccn6)CC5)C(F)(F)C4)cc3C2=O)C(=O)N1 (stereo not shown) | B (80%< substrate protein remaining %≤ 100%)

target: WEE1 (Homo sapiens, UniProt P30291+Q96SW2); assay: as above; settings: 24 hours treatment, compounds at 50 nM and 500 nM (concentration behind the class not stated)

Row | Compound | substrate protein remaining % (WEE1)
7 | O=C1CCC(N2Cc3c(ccc(CN4CCC(N5CCN(c6noc7cc(F)ccc67)CC5)C(F)(F)C4)c3F)C2=O)C(=O)N1 (stereo not shown) | A (0% ≤ substrate protein remaining % ≤ 80%)
8 | O=C1CCC(N2Cc3ccc(CN4CCC(N5CCN(c6noc7cc(F)ccc67)CC5)C(F)(F)C4)cc3C2=S)C(=O)N1 (stereo not shown) | B (80%< substrate protein remaining %≤ 100%)
9 | O=C1CCN(N2C(=O)c3ccc(CN4CCC(N5CCN(C(c6ccccc6)c6ccccn6)CC5)C(F)(F)C4)cc3C2=O)C(=O)N1 (stereo not shown) | A (0% ≤ substrate protein remaining % ≤ 80%)

target: IKZF3 (Homo sapiens, UniProt Q96SW2+Q9UKT9); assay: as above; settings: 24 hours treatment, compounds at 50 nM and 500 nM (concentration behind the class not stated)

Row | Compound | substrate protein remaining % (IKZF3)
10 | O=C1CCC(N2Cc3c(ccc(CN4CCC(N5CCN(c6noc7cc(F)ccc67)CC5)C(F)(F)C4)c3F)C2=O)C(=O)N1 (stereo not shown) | A (0% ≤ substrate protein remaining % ≤ 80%)
11 | O=C1CCC(N2Cc3ccc(CN4CCC(N5CCN(c6noc7cc(F)ccc67)CC5)C(F)(F)C4)cc3C2=S)C(=O)N1 (stereo not shown) | B (80%< substrate protein remaining %≤ 100%)
12 | O=C1CCN(N2C(=O)c3ccc(CN4CCC(N5CCN(C(c6ccccc6)c6ccccn6)CC5)C(F)(F)C4)cc3C2=O)C(=O)N1 (stereo not shown) | B (80%< substrate protein remaining %≤ 100%)

target: CK1α (Homo sapiens, UniProt P48729+Q96SW2); assay: as above; settings: 24 hours treatment, compounds at 50 nM and 500 nM (concentration behind the class not stated)

Row | Compound | substrate protein remaining % (CK1a)
13 | O=C1CCC(N2Cc3c(ccc(CN4CCC(N5CCN(c6noc7cc(F)ccc67)CC5)C(F)(F)C4)c3F)C2=O)C(=O)N1 (stereo not shown) | A (0% ≤ substrate protein remaining % ≤ 80%)
14 | O=C1CCC(N2Cc3ccc(CN4CCC(N5CCN(c6noc7cc(F)ccc67)CC5)C(F)(F)C4)cc3C2=S)C(=O)N1 (stereo not shown) | B (80%< substrate protein remaining %≤ 100%)
15 | O=C1CCN(N2C(=O)c3ccc(CN4CCC(N5CCN(C(c6ccccc6)c6ccccn6)CC5)C(F)(F)C4)cc3C2=O)C(=O)N1 (stereo not shown) | B (80%< substrate protein remaining %≤ 100%)

target: IKZF2 (Homo sapiens, UniProt Q96SW2+Q9UKS7); assay: as above; settings: 24 hours treatment, compounds at 50 nM and 500 nM (concentration behind the class not stated)

Row | Compound | substrate protein remaining % (IKZF2)
16 | O=C1CCC(N2Cc3c(ccc(CN4CCC(N5CCN(c6noc7cc(F)ccc67)CC5)C(F)(F)C4)c3F)C2=O)C(=O)N1 (stereo not shown) | A (0% ≤ substrate protein remaining % ≤ 80%)
17 | O=C1CCC(N2Cc3ccc(CN4CCC(N5CCN(c6noc7cc(F)ccc67)CC5)C(F)(F)C4)cc3C2=S)C(=O)N1 (stereo not shown) | B (80%< substrate protein remaining %≤ 100%)
18 | O=C1CCN(N2C(=O)c3ccc(CN4CCC(N5CCN(C(c6ccccc6)c6ccccn6)CC5)C(F)(F)C4)cc3C2=O)C(=O)N1 (stereo not shown) | B (80%< substrate protein remaining %≤ 100%)

target: CRBN (Homo sapiens, UniProt Q96SW2); assay: CRBN binding affinity by HTRF (CEREBLON BINDING kit); settings: CRBN binding, HTRF, compound at 0.5 µM

Row | Compound | Inhibition Rate at 0.5 µM (%)
19 | O=C1CCC(N2Cc3c(ccc(CN4CCC(N5CCN(c6noc7cc(F)ccc67)CC5)C(F)(F)C4)c3F)C2=O)C(=O)N1 (stereo not shown) | a5 (53% < a5 ≤ 60%)
20 | O=C1CCC(N2Cc3ccc(CN4CCC(N5CCN(c6noc7cc(F)ccc67)CC5)C(F)(F)C4)cc3C2=S)C(=O)N1 (stereo not shown) | a4 (40% < a4 ≤ 53%)

same assay, conditions: CRBN binding, HTRF, compound at 2 µM

Row | Compound | Inhibition Rate at 2 µM (%)
21 | O=C1CCC(N2Cc3c(ccc(CN4CCC(N5CCN(c6noc7cc(F)ccc67)CC5)C(F)(F)C4)c3F)C2=O)C(=O)N1 (stereo not shown) | a6 (60% < a6 ≤ 70%)
22 | O=C1CCC(N2Cc3ccc(CN4CCC(N5CCN(c6noc7cc(F)ccc67)CC5)C(F)(F)C4)cc3C2=S)C(=O)N1 (stereo not shown) | a7 (70% < a7 ≤80%)

tested on: Human multiple myeloma cell (MM.1S); assay: Tumor cell proliferation inhibition (cell viability assay); settings: MM.1S cells; 10 nM; 96 hours

Row | Compound | Inhibition Rate at 10 nM (%)
23 | O=C1CCC(N2Cc3c(ccc(CN4CCC(N5CCN(c6noc7cc(F)ccc67)CC5)C(F)(F)C4)c3F)C2=O)C(=O)N1 (stereo not shown) | 1b5 (32% ≤ 1b5 < 42%)
24 | O=C1CCC(N2Cc3ccc(CN4CCC(N5CCN(c6noc7cc(F)ccc67)CC5)C(F)(F)C4)cc3C2=S)C(=O)N1 (stereo not shown) | 1b5 (32% ≤ 1b5 < 42%)

same assay, conditions: MM.1S cells; 500 nM; 96 hours

Row | Compound | Inhibition Rate at 500 nM (%)
25 | O=C1CCC(N2Cc3c(ccc(CN4CCC(N5CCN(c6noc7cc(F)ccc67)CC5)C(F)(F)C4)c3F)C2=O)C(=O)N1 (stereo not shown) | 1b8 (60% ≤ 1b8 < 70%)
26 | O=C1CCC(N2Cc3ccc(CN4CCC(N5CCN(c6noc7cc(F)ccc67)CC5)C(F)(F)C4)cc3C2=S)C(=O)N1 (stereo not shown) | 1b7 (50% ≤ 1b7 < 60%)

tested on: IL-2; assay: Inflammatory cytokine release from PBMCs induced by PHA (flow cytometry CBA); settings: 0.1 µM; PBMCs, PHA 1 µg/mL, 24 h

Row | Compound | Inhibition Rate (%) IL-2
27 | O=C1CCN(N2C(=O)c3ccc(CN4CCC(N5CCN(C(c6ccccc6)c6ccccn6)CC5)C(F)(F)C4)cc3C2=O)C(=O)N1 (stereo not shown) | IV9 (40% < IV9 ≤ 50%)

same assay, conditions: 1 µM; PBMCs, PHA 1 µg/mL, 24 h

Row | Compound | Inhibition Rate (%) IL-2
28 | O=C1CCN(N2C(=O)c3ccc(CN4CCC(N5CCN(C(c6ccccc6)c6ccccn6)CC5)C(F)(F)C4)cc3C2=O)C(=O)N1 (stereo not shown) | IV8 (30% < IV8 ≤ 40%)

From EP4834897A1, “COMPOUNDS WITH TWO AZAHETEROCYCLES SUBSTITUTED ISOINDOLINONE SKELETON AND USES THEREOF” (dated 2026)
